{"source": "paper PMC9715707", "about": "“Identification of a novel peptide ligand for the cancer-specific receptor mutation EGFRvIII using high-throughput sequencing of phage-selected peptides” (Scientific Reports, 2022)", "target": "T1, EGFRvIII (Homo sapiens, UniProt P00533, DELINS30-297G)", "T1 construct": "using purified and active extracellular domain of the EGFRvIII protein; purchased Sino Biological 29662-H08B", "assay": "Microscale thermophoresis, EGFRvIII in solution", "assay_type": "binding", "conditions": "solution phase", "description": "Microscale thermophoresis (MST) were performed on a Monolith NT.115 Pico (red-pico) at 25 °C, with 5% LED power and 40% laser power. Proteins were labelled with NT 650 NHS 2nd Gen (NHS chemistry), 10 nM (final concentration) of protein was used in the experiments. A serial of 1:1 dilution with 16 concentrations of peptide was prepared. 5 μL of each dilution step were mixed with 5 μL of the fluorescent molecule. The mixture was filled in premium coated capillaries. […] The highest concentration (final concentration) of FALGEA peptide used for EGFR WT and EGFRvIII experiment was 20 µM and 10 µM respectively. The experiments were performed in an assay buffer containing 1× PBS pH 7.4, 0.005% Tween-20, 1% DMSO. Three independent experiments were performed for each condition.\nFigure S5. Analyses of interactions of EGFR WT (left panel) and EGFRvIII (right panel) in solution phase with the peptides FALGEA (top row) and VLG (bottom row) by MST. MST were performed on Monolith NT.115 Pico (red-pico) at 25 °C, with 5 % LED power and 40 % laser power. Proteins were labelled with NT 650 NHS 2nd Gen (NHS chemistry), 10 nM (final concentration) of protein was used in the experiments. A serial of 1:1 dilution with 16 concentrations of peptide was prepared. 5 μL of each dilution step were mixed with 5 μL of the fluorescent molecule. The mixture was filled in premium coated capillaries. […]", "data": [{"sequence": "VLGREEWSTSYW [novel 12-mer peptide ligand of EGFRvIII selected by phage display]", "values": [{"measurement": "MST binding to EGFRvIII, qualitative", "setting": "25 °C, 1x PBS pH 7.4, 0.005% Tween-20, 1% DMSO", "value": "weaker binding in solution"}, {"measurement": "MST selectivity EGFRvIII versus EGFR WT, qualitative", "setting": "EGFRvIII compared with EGFR WT", "value": "preferentially bind to EGFRvIII rather than EGFR WT"}]}]}
